## AlphaSeq binding of Ab-14 light chain variants to a spike HR2 peptide

Antigen: PDVDLGDISGINAS, a 14-residue peptide of the SARS-CoV-2 spike HR2 region.

Ab-14 is the parent antibody, in scFv form: VH, then three GGGGS repeats, then VL. The heavy chain is unchanged in all variants.
VH: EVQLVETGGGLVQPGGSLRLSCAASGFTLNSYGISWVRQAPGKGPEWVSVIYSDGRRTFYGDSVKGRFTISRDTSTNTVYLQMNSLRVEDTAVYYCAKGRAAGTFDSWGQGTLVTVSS
VL: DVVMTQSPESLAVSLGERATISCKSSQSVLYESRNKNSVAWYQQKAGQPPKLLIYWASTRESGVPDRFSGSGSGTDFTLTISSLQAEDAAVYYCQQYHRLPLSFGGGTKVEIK

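The parent was found by panning a naive human phage display library on the peptide. Library AAYL50 holds single substitutions and randomly drawn double and triple substitutions in the CDRs. AlphaSeq pools MATa yeast showing the antibodies with MATalpha yeast showing the peptide. The frequency of each diploid, read from paired DNA barcodes, reflects how well the two displayed proteins bind. Read counts were normalised to the haploid input and turned into Kd by a linear fit to BCL2-family pairs of known affinity, for each replicate. Mating was done three times.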

The parent's light chain CDRs are KSSQSVLYESRNKNSVA, WASTRES, QQYHRLPLS; each variant's own CDRs replace them letter for letter. Values are log10 of the apparent Kd in nM; lower means stronger binding. A mean of the replicates is given; it leaves out those without a signal. An entry "n.d." has no value in the source: the pair was not observed among the diploids in that replicate. This suggests poor binding but is not conclusive. Nonspecific signal, from three strains lacking the peptide, appeared in 18% of pairings of library AAYL50, centred on 4.19 (5% of these signals below 2.99); values are not corrected for it. For each scFv, signals with the empty controls are counted beside the result, with their mean in brackets.

{"CDR-L1": "KSMQSVLYESRNKNSVA", "CDR-L2": "WASCRES", "CDR-L3": "QQSHRLPLS", "replicates, log10 nM": "4.20 / 3.93 / n.d.", "log10 Kd (nM), mean": "4.07", "signal with controls": "3/9 (3.65)"}
{"CDR-L1": "KSSQSELYESANKGSVA", "CDR-L2": "WASTRES", "CDR-L3": "QQYHRLPLS", "replicates, log10 nM": "2.27 / 2.29 / 2.66", "log10 Kd (nM), mean": "2.41", "signal with controls": "0/9"}
{"CDR-L1": "KSSWSVCYESRNKNSVA", "CDR-L2": "WASTRES", "CDR-L3": "QQYHRLPLS", "replicates, log10 nM": "n.d. / n.d. / 3.62", "log10 Kd (nM), mean": "3.62", "signal with controls": "1/9 (3.18)"}
{"CDR-L1": "KSSQSVMYESRNKNSVA", "CDR-L2": "WASTRES", "CDR-L3": "QQYHRVPNS", "replicates, log10 nM": "5.90 / n.d. / 5.04", "log10 Kd (nM), mean": "5.47", "signal with controls": "5/9 (4.51)"}
{"CDR-L1": "ESSQSVLYESRNKNSVA", "CDR-L2": "AASTRES", "CDR-L3": "MQYHRLPLS", "replicates, log10 nM": "n.d. / 2.74 / n.d.", "log10 Kd (nM), mean": "2.74", "signal with controls": "0/9"}
{"CDR-L1": "KSSQSVLYESRNKNFVA", "CDR-L2": "MASTRNS", "CDR-L3": "QQYHRLPLS", "replicates, log10 nM": "2.05 / 1.87 / 2.14", "log10 Kd (nM), mean": "2.02", "signal with controls": "0/9"}
{"CDR-L1": "KSSQSVLYESAYKRSVA", "CDR-L2": "WASTRES", "CDR-L3": "QQYHRLPLS", "replicates, log10 nM": "2.34 / 2.60 / 2.99", "log10 Kd (nM), mean": "2.64", "signal with controls": "0/9"}
{"CDR-L1": "TSSQSVLYESKNKNSVH", "CDR-L2": "WASTRES", "CDR-L3": "QQYHRLPLS", "replicates, log10 nM": "n.d. / 3.30 / 3.90", "log10 Kd (nM), mean": "3.60", "signal with controls": "3/9 (3.59)"}
{"CDR-L1": "KSSQSVLGESRNKNSVA", "CDR-L2": "WASTRRS", "CDR-L3": "QQYHRLPLS", "replicates, log10 nM": "2.23 / 2.20 / 2.74", "log10 Kd (nM), mean": "2.39", "signal with controls": "3/9 (4.86)"}
{"CDR-L1": "KSSMSVLYESRNKNSVA", "CDR-L2": "WAPGRES", "CDR-L3": "QQYHRLPLS", "replicates, log10 nM": "6.17 / 4.79 / 4.03", "log10 Kd (nM), mean": "5.00", "signal with controls": "3/9 (4.09)"}
{"CDR-L1": "KSSQSVLYESRNKVSVA", "CDR-L2": "GASTRES", "CDR-L3": "WQYHRLPLS", "replicates, log10 nM": "n.d. / n.d. / 5.37", "log10 Kd (nM), mean": "5.37", "signal with controls": "3/9 (3.82)"}
{"CDR-L1": "KSSQSVLYESRNKNSVA", "CDR-L2": "WASTRHS", "CDR-L3": "QQYNRLPLP", "replicates, log10 nM": "n.d. / n.d. / n.d.", "log10 Kd (nM), mean": "n.d.", "signal with controls": "0/9"}
{"CDR-L1": "KSSQSVLYESRNKRSVA", "CDR-L2": "LASLRES", "CDR-L3": "QQYHRLPLS", "replicates, log10 nM": "1.37 / 1.70 / 1.73", "log10 Kd (nM), mean": "1.60", "signal with controls": "2/9 (3.86)"}
{"CDR-L1": "KSSQSVLYYSRNKNSVA", "CDR-L2": "KASTRSS", "CDR-L3": "QQYHRLPLS", "replicates, log10 nM": "2.01 / 1.97 / 2.58", "log10 Kd (nM), mean": "2.19", "signal with controls": "5/9 (4.16)"}
{"CDR-L1": "KSSQSVLWESRNFNSVA", "CDR-L2": "WASTRES", "CDR-L3": "QQQHRLPLS", "replicates, log10 nM": "n.d. / n.d. / n.d.", "log10 Kd (nM), mean": "n.d.", "signal with controls": "1/9 (3.81)"}
{"CDR-L1": "KSSQSVLYESNNKNSVA", "CDR-L2": "WASTCEL", "CDR-L3": "QQYHRLPLS", "replicates, log10 nM": "2.65 / 2.56 / 2.67", "log10 Kd (nM), mean": "2.63", "signal with controls": "6/9 (4.05)"}
{"CDR-L1": "KSSQSVLYESRNKNSVA", "CDR-L2": "WASPRES", "CDR-L3": "QQYHNLPLS", "replicates, log10 nM": "n.d. / n.d. / n.d.", "log10 Kd (nM), mean": "n.d.", "signal with controls": "0/9"}
{"CDR-L1": "KSSQSVLYESRNKNSVA", "CDR-L2": "WASTRES", "CDR-L3": "QQYMRLPAG", "replicates, log10 nM": "0.64 / 0.85 / 0.78", "log10 Kd (nM), mean": "0.75", "signal with controls": "1/9 (3.33)"}
{"CDR-L1": "KSSQSELYESRNKNSDA", "CDR-L2": "WASTCES", "CDR-L3": "QQYHRLPLS", "replicates, log10 nM": "n.d. / n.d. / n.d.", "log10 Kd (nM), mean": "n.d.", "signal with controls": "6/9 (4.78)"}
{"CDR-L1": "RSSQSVLYESRNKNSVK", "CDR-L2": "WASTRES", "CDR-L3": "QQYHRLRLS", "replicates, log10 nM": "n.d. / n.d. / n.d.", "log10 Kd (nM), mean": "n.d.", "signal with controls": "3/9 (4.24)"}
{"CDR-L1": "KSSQSVLYESRNKNSWA", "CDR-L2": "WESTRES", "CDR-L3": "QQYHRLPLS", "replicates, log10 nM": "3.33 / 2.57 / 2.02", "log10 Kd (nM), mean": "2.64", "signal with controls": "1/9 (4.58)"}
{"CDR-L1": "KSSQSVLYESRNKNSVA", "CDR-L2": "WASTRES", "CDR-L3": "QVYHRLPLP", "replicates, log10 nM": "0.72 / 0.80 / 0.74", "log10 Kd (nM), mean": "0.75", "signal with controls": "4/9 (4.76)"}
{"CDR-L1": "KSSQSVLYVSRNKNSVA", "CDR-L2": "WASTRES", "CDR-L3": "LQYHRLRLS", "replicates, log10 nM": "n.d. / n.d. / n.d.", "log10 Kd (nM), mean": "n.d.", "signal with controls": "1/9 (3.25)"}
{"CDR-L1": "KSSQSVLYESRNKNSVA", "CDR-L2": "WASTRES", "CDR-L3": "QQYHRRPLD", "replicates, log10 nM": "3.33 / 3.30 / 5.02", "log10 Kd (nM), mean": "3.88", "signal with controls": "5/9 (3.70)"}

For reference, 3 entries of the list once more:

CDR-L1	CDR-L2	CDR-L3	replicates, log10 nM	log10 Kd (nM), mean	signal with controls
KSSQSELYESANKGSVA	WASTRES	QQYHRLPLS	2.27 / 2.29 / 2.66	2.41	0/9
KSSQSVLYESRNKRSVA	LASLRES	QQYHRLPLS	1.37 / 1.70 / 1.73	1.60	2/9 (3.86)
KSSQSVLWESRNFNSVA	WASTRES	QQQHRLPLS	n.d. / n.d. / n.d.	n.d.	1/9 (3.81)

Source: Engelhart et al. 2022 (doi:10.1038/s41597-022-01779-4), MIT Lincoln Laboratory and A-Alpha Bio; data file from the FLAb repository.